Patent US20250375471A1, “HEPARANASE INHIBITORS AND METHODS OF USE” (The Board of Regents of the University of Oklahoma, priority 2022, published 2025)

The chains behind the UniProt entries cited, without tags or fusion partners. Residues count along the entry.
UniProt P01008, 33-464: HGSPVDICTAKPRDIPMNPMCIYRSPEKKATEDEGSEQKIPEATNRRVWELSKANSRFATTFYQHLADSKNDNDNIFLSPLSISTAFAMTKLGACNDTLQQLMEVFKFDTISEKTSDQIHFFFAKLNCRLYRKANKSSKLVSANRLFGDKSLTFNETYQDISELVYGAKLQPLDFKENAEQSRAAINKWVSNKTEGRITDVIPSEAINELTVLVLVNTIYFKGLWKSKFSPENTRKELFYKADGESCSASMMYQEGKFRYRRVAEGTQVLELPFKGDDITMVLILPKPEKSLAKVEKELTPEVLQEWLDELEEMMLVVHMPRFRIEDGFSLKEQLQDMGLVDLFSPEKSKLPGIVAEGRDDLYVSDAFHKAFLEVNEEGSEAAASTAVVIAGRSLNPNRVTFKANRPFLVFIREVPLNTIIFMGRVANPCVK

Columns and labels:
[1] = target: T1, Recombinant human heparanase (Homo sapiens, UniProt Q9Y251); assay: Gel-based heparanase enzyme inhibition assay, fluorescent synthetic O-sulfated heparosan substrate; type: biochemical
T1 construct: purchased R&D Systems; Minneapolis, MN
T1 sequence (Q9Y251 158-543 limits assumed): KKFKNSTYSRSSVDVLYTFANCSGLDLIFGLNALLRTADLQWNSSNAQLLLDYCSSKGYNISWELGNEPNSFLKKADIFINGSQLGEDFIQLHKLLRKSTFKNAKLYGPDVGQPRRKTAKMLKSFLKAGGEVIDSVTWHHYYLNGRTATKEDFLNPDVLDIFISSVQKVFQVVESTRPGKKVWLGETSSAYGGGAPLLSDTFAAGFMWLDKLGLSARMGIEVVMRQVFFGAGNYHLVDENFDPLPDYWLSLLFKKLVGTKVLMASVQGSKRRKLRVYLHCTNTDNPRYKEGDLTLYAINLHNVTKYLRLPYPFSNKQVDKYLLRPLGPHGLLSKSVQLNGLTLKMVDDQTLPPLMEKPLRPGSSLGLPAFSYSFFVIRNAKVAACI
T1 sequence (Q9Y251 36-109 limits assumed): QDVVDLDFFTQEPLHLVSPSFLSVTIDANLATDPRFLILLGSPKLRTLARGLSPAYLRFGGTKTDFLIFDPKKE
Text: PAGE (15%, 1×TBE) analysis of the kinetics of Hepase cleavage of a fluorescent sulfo-O-linked heparosan substrate (starting material marked with arrow) with a titration of the sTestan inhibitor (decreasing amounts in nanograms from left to right; 15-min time point shown here). A calibrant series of fluorescent substrate treated with varying amounts of heparanase enzyme (‘¼,’ ‘½,’ or ‘1’ for 25%, 50%, or 100% relative amounts, respectively) was used to evaluate inhibitor potency (shown on left). […]
A gel-based assay was used to monitor the catalytic action of recombinant human heparanase (R&D Systems; Minneapolis, MN) on polysaccharide substrates. In these assays, fluorescent chains were monitored for cleavage; the disappearance of the parental substrate band is readily noticeable. […]
Two types of substrates were employed to follow heparanase activity: (i) a fluorescein end-labeled synthetic O-sulfated O-linked heparosan or (ii) polyacrylamide gel electrophoretically-purified rhodamine-tagged HS. […] Aliquots of reactions were analyzed by polyacrylamide gel electrophoresis (2 μl of reaction/lane; 20% gels, 1×TBE) and fluorescence imaging (5-120 sec exposures; ChemiDoc MP). […]

[2] = target: thrombin/antithrombin III interaction (Homo sapiens, UniProt P01008); conditions: FIG. 9
[3] = target: T2, HIT antibody complex (Platelet Factor 4 and antibody) (Homo sapiens, UniProt P02776); assay: Modified diagnostic HIT assay (Zymutest HIA IgG), competition with plate-bound heparin; conditions: ELISA, absorbance 415 nm
T2 sequence (P02776 32-101): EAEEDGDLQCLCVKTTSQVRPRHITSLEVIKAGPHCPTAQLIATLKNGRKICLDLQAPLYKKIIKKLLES
Procedure: ELISA methodology was used to measure the bound antibody as measured by absorbance (at 415 nm) of the product derived from a chromogenic substrate by the enzyme on the secondary antibody probe. […] Heparin derivatives treated to reduce their anticoagulant activity (non-anticoagulant heparin (NACH) or Roneparstat (Rone)) were also tested in the HIT assay.

sulfated or sulfonated testosteronan [sTestan]
IC50 [1]: 5 to 20 nM
fold less effective than heparin as anticoagulant [2]: ≥ 20,000 fold
HIT complex reactivity (competition with plate-bound heparin) [3]: less or similar HIT potential than heparin and its derivatives
